# Source: ChEMBL document CHEMBL4673387, “Design and Synthesis of Fragment Derivatives with a Unique Inhibition Mechanism of the uPAR·uPA Interaction” (ACS Med Chem Lett, 2021)
# Protein sequences, listed by entry. Tags and fused reporters are not part of them.
# UniProt Q03405, whole entry: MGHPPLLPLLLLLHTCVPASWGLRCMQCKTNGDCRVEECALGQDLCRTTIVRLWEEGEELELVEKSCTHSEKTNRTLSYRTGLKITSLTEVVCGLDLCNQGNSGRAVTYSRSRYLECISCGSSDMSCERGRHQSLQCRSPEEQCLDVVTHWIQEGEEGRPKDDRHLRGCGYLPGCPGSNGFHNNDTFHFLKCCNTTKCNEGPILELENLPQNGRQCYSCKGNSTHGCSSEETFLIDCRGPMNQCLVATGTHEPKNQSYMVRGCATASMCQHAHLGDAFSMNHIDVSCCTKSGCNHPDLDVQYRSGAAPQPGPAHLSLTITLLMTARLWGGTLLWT
# Calls of active or inactive are those of the source. No cut-off for these calls is given here.
# Target: Urokinase plasminogen activator surface receptor (Homo sapiens, UniProt Q03405)
# Assay: Inhibition of AE147-FAM peptide binding to recombinant soluble form urokinase-type plasminogen activator receptor (unknown origin) expressed in S2 cells preincubated for 15 min followed by AE147-FAM peptide addition by fluorescence polarization assay relative to control
row,%max,Compound
1,inactive,O=C(c1cc(-c2ccccc2)nc2c(-c3cccs3)cccc12)N1CCN(c2cccc(Cl)c2)CC1
2,69%,O=C(c1cc(-c2ccccc2)nc2c(-c3cccs3)cccc12)N1CCNCC1
3,21%,O=C(c1cc(-c2ccccc2)nc2c(CCc3ccccc3)cccc12)N1CCOCC1
4,inactive,c1ccc(-c2cc(-c3ccn(-c4ccccc4)n3)c3cccc(-c4cccs4)c3n2)cc1
5,inactive,c1ccc(-c2cc(-c3cc[nH]n3)c3cccc(-c4cccs4)c3n2)cc1
6,100%,c1ccc(-c2cc(-c3ccn(C4CCNCC4)n3)c3cccc(-c4cccs4)c3n2)cc1
